Test results as given in US20030036633A1, “DNA encoding bradykinin B1 receptor” (Merck & Co., Inc., priority 1994, published 2003).
Positions count from the first letter of the chain named.

Amino acid sequences for entries named in this document (tags omitted). A change or cut given only in a name is not applied to a line headed by its entry.
UniProt P01042: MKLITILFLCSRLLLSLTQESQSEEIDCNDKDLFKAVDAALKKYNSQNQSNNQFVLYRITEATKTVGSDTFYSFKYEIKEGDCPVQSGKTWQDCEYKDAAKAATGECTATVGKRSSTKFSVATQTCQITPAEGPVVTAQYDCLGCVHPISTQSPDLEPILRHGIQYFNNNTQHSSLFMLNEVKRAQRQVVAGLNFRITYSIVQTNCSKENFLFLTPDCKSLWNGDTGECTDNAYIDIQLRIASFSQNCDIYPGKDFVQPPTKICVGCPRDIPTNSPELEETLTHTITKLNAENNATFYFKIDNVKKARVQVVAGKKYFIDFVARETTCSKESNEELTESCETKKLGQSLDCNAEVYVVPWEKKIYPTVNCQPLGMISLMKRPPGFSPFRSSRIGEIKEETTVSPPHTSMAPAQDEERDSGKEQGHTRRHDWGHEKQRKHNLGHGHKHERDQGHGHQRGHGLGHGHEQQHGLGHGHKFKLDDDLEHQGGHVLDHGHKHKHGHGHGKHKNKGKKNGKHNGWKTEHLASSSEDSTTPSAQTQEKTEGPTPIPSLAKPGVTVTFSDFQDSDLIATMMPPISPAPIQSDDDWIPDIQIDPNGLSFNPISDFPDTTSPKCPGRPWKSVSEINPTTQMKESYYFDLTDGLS

T1: B1 receptor in IMR-90 cells (Homo sapiens, UniProt P46663)
T1 construct: 33E9) with the B1 receptor in IMR-90 cells (IMR-90); endogenous in cells; host or cells: IMR-90 cells (ATCC CCL 186)
T1 sequence (P46663 1-353): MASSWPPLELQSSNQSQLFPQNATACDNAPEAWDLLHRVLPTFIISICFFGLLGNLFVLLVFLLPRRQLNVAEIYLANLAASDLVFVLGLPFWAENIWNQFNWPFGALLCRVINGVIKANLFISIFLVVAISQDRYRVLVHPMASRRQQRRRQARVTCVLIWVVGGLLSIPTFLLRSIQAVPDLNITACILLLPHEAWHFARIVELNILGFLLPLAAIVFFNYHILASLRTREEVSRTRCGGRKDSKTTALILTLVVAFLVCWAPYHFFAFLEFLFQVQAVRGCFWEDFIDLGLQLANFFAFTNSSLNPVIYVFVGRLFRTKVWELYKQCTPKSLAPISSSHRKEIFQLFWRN

T2: cloned human B1 bradykinin receptor in transiently transfected COS-7 cells (COS 33E9) (Homo sapiens, UniProt P46663)
T2 construct: the full-length open reading frame of the B1 DNA (encoding a protein of about 40.4 kDa =about base 209 to about base 1267); expressed in transfected cells; host or cells: COS-7 cells, transient electroporation of clone 33E9 (pcDNA3 library vector)
T2 sequence (P46663 1-353): T1 sequence (P46663 1-353)

T3: B1 bradykinin receptor clone 33E9 transfected into COS-7 cells (Homo sapiens, UniProt P46663)
T3 construct: the full-length open reading frame of the B1 DNA (encoding a protein of about 40.4 kDa =about base 209 to about base 1267); expressed in transfected cells; host or cells: COS-7 cells, transient electroporation of clone 33E9 (pcDNA3 library vector)
T3 sequence (P46663 1-353): T1 sequence (P46663 1-353)

T4: B1 bradykinin receptor in IMR-90 cells (human, UniProt P46663 1-353)
T4 construct: whole, on cells; Endogenous receptor; also called B1 receptor expressed in IMR-90 cells
T4 sequence (looked up): T1 sequence (P46663 1-353)

T5: cloned human B1 bradykinin receptor (clone 33E9) (human, UniProt P46663 1-353)
T5 construct: Transiently expressed in COS-7 cells; The same clone was expressed from cRNA in Xenopus oocytes for the functional read-out; also called COS 33E9; the cloned receptor
T5 sequence: T1 sequence (P46663 1-353) with R146G


Tests used:
[1] = target: T1, B1 receptor in IMR-90 cells; experiment: Displacement of 1 nM [3H]des-Arg10kallidin, membrane binding assay, IMR-90; details: read-out: IC50, IMR-90, IMR-90 membranes
[2] = target: T2, cloned human B1 bradykinin receptor in transiently transfected COS-7 cells (COS 33E9); experiment: Displacement of 1 nM [3H]des-Arg10kallidin, membrane binding assay, COS 33E9; details: read-out: IC50, COS 33E9, membranes of transiently transfected COS-7 cells
Method: Transient expression of the cloned B1 bradykinin receptor in COS-7 cells was accomplished by electroporation using a Biorad Gene Pulser. […] Binding assays were performed at room temperature for 45 minutes. Reactions were terminated by filtration using an Inotech cell harvester onto glass fiber filters (Inotech) that had been briefly soaked in 0.3% polyethyleneimine. The filters were washed five times with 1 ml per well of cold PBS and counted in a liquid scintillation counter. Alternatively, reactions were collected using a Tomtec cell harvester 96 onto 0.3% polyethyleneimine presoaked glass fiber filters (Pharmacia, printed filtermat for use with the 1205 Betaplate). The filter was washed five times with a total of 10 ml per well of cold 1× PBS, dried and sealed in a bag (Pharmacia) containing scintillation fluid. Counting was accomplished using a LKB1205 Betaplate liquid scintillation counter.

[3] = target: T3, B1 bradykinin receptor clone 33E9 transfected into COS-7 cells; experiment: Saturation binding with [3H]des-Arg10kallidin, Scatchard analysis; details: Scatchard analysis of saturation binding data; clone 33E9 in COS-7 cells
Method: Transient expression of the cloned B1 bradykinin receptor in COS-7 cells was accomplished by electroporation using a Biorad Gene Pulser. Three days post-transfection, cells were processed for a whole cell binding assay as previously published (K. A. Schneck, J. F. Hess, G. Y. Stonesifer, R. W. Ransom, European Journal of Pharmacology—Molecular Pharmacology Section 266, 277-282 (1994)) or membranes were prepared as described previously (Huang, R. -R. C., Dehaven, R. N., Cheung, A. H., Diehl, R. E., Dixon, R. A. F., Strader, C. D., Molecular Pharmacology 37, 304-310 (1990)) and radioligand binding measured as follows. Displacement studies were done with 1 nM [des-Arg^10],[3,4-^3H(N)]-kallidin (NEN) in the presence of varying concentrations of competitor compounds. Binding assays were performed at room temperature for 45 minutes. Reactions were terminated by filtration using an Inotech cell harvester onto glass fiber filters (Inotech) that had been briefly soaked in 0.3% polyethyleneimine. The filters were washed five times with 1 ml per well of cold PBS and counted in a liquid scintillation counter. […]
The B1 bradykinin receptor clone 33E9 was transfected into COS-7 cells and the pharmacological properties of the expressed receptor were determined.

[4] = target: T4, B1 bradykinin receptor in IMR-90 cells; experiment: displacement of 1 nM [3H]des-Arg10kallidin, membrane binding assay, IMR-90 cells
Method: (§1) Binding assays were performed at room temperature for 45 minutes. Reactions were terminated by filtration using an Inotech cell harvester onto glass fiber filters (Inotech) that had been briefly soaked in 0.3% polyethyleneimine. The filters were washed five times with 1 ml per well of cold PBS and counted in a liquid scintillation counter. Alternatively, reactions were collected using a Tomtec cell harvester 96 onto 0.3% polyethyleneimine presoaked glass fiber filters (Pharmacia, printed filtermat for use with the 1205 Betaplate). The filter was washed five times with a total of 10 ml per well of cold 1× PBS, dried and sealed in a bag (Pharmacia) containing scintillation fluid. Counting was accomplished using a LKB₁₂₀₅ Betaplate liquid scintillation counter.
(§2) The IC₅₀'s were determined by the displacement of 1 nM [³H]des- Arg¹⁰kallidin in the membrane binding assay described above.

[5] = target: T5, cloned human B1 bradykinin receptor …; experiment: displacement of 1 nM [3H]des-Arg10kallidin, membrane binding assay, COS-7 cells transiently transfected with clone 33E9
Method: as §1, §2

Molecule	IC50 [1]	IC50 [2]	IC50 [4]	IC50 [5]	other results
Kallidin	44 nM	46 nM	–	–	–
Met-Lys-Bradykinin	–	71 nM	–	–	–
[des-Arg^10],[3,4-^3H(N)]-kallidin [[^3H]des-Arg^10kallidin]	–	–	–	–	Kd [3]: ~1 nM
des-Arg^9Leu^8bradykinin	266 nM	605 nM	–	–	–
des-Arg^9bradykinin	660 nM	1500 nM	–	–	–
des-Arg^10Leu^9kallidin	7.8 nM	–	–	–	–
KRPPGFSPL [des-Arg^10Leu^9kallidin]	–	–	7.8 nM	–	–
KRPPGFSPFR (peptide, UniProt P01042 380-389, looked up, domain: Kallidin; also called Lys-BK) [Kallidin]	–	–	44 nM	46 nM	–
RPPGFSPL [des-Arg^9Leu^8bradykinin]	–	–	266 nM	605 nM	–
MKRPPGFSPFR (peptide, UniProt P01042 379-389, looked up, domain: Met-Lys-Bradykinin) [Met-Lys-Bradykinin]	–	–	–	71 nM	–
